Measured values published in patent publication US6894033B2, “Combination therapies using vitamin B12 and therapeutic agents for treatment of viral, proliferative and inflammatory diseases” (Transition Therapeutics Inc., priority 2001, dated 2005).

How the values were obtained:
[1] = tested on: Vesticular Stomatitis Virus (VSV); assay type: cell-based; details: MRC-5; for Antiviral effect on VSV (CPE inhibition): fraction
[2] = tested on: Human Hepatitis B Virus (HBV); test: HBV DNA copies in HepG2.2.15 culture medium by Lightcycler real-time PCR; assay type: cell-based; details: for Antiviral effect on HBV (HBV DNA copies): HepG2.2.15, 9 days, fraction
Experimental: HepG2.2.15 cells, a cell line that was stably transfected with HBV genome, were cultured in RPMI-1640 with fetal bovine serum at either 2 or 4% final concentration and with no antibiotics. […] The medium was then discarded and replaced with 100 μl of culture medium containing hydroxocobalamin (a form of vitamin B12) alone (at various concentrations), interferon-beta alone (at various international units), and a mixture of varying doses of hydroxocobalamin (HC) and various doses of interferon-beta vs. HC. Triplicate samples were measured for each concentration. The cells were incubated at 37° C. for 9 days. Drug/medium was changed daily. On day 9, the culture media containing released HBV virions were harvested and used to extract HBV DNA.
HBV DNA from drug-treated HepG2.2.15 cell culture media was extracted using QIAmp DNA mini kit—blood and body fluid spin column according to manufacturer's instructions. Briefly, 10 μl of QIAGEN proteinase K was added to 1.5 ml Eppendorf tube. 50 μl cell supernatant and 50 μl AL buffer were added to the tube. The samples were incubated at 56° C. water bath for 3 h. At the end of incubation, 50 μl ethanol was added to the sample. The mixture was transferred to a QIAamp spin column and centrifuged at 14000 rpm for 1 min. The filtrate was discarded. 50 μl Buffer AW1 was then added to the column and centrifuged at 14000 rpm for 1 min. Following washing and recentrifugation, DNA was eluted in 50 μl dH2O.
HBV DNA was detected by real-time PCR using Lightcycler assay. The reaction was performed in 20 μl, comprising the following: 6.4/4.8 μl dH2O, 2 μl 25 mM MgCl2, 1 μl 10 μM sense primer, 1 μl 10 μM antisense primer, 8/1.6 μl LightCycler Probe (fluorescein-labeled, 5 μM), 0.8/1.6 μl LightCycler Probe 2 (LC Red 640-labeled, 10 μM), 2 μl LC FastStart DNA Master Hyb Probes, 1 μl uracil DNA glycosylase.
PCR mix was aliquoted into glass capillaries and 5 μl DNA template was then added to the PCR mix. A range of HBV plasmid DNA (1×10^8, 1×10^7, 1×10^6, . . . , 1×10^2, 25 copies) was used as standards for quantitative analysis.
The antiviral effects of the test compounds were calculated using DNA copy numbers as an endpoint. Specifically, the antiviral activities were calculated based on the following formula: Antiviral effect=(Ccontrol−Ctest)/Ccontrol whereby the Ccontrol is the HBV DNA copies in the control wells (without drug); the Ctest is the HBV DNA copies in the test wells with a given concentration of a test compound.
The enhancing or antagonistic effect was analyzed mathematically using the median effect equation (Chou and Talalay, 1984) by computer software CalcuSyn (Biosoft, St. Louis). The range of the combination index (CI) is illustrated below in Table 6.

ND4 mouse model = test: Clinical signs in the ND4 demyelinating transgenic mouse model; assay type: in vivo
Experimental: In this model, the severity of the clinical signs increased until a maximum around 6 months with animals dying around 8 to 9 months of age. Clinical signs assessed included general shaking, seizures, head jerk, hind limb and tail shiver, wobbly gait and limp tail. The scale of zero (absence) to four (constant and uncontrollable movements) was used for each of the clinical signs.
Mice (4 animals per group) were treated with vitamin B12 (cyanocobalamin) alone at a dose of 15 mg/kg; weekly and in combination with interferon-beta 1a (REBIF®). Interferon-beta 1a was administered alone and in combination with vitamin B12 at a dose of interferon-beta 1a of 5000 IU, tri-weekly. […]
ND4 mice were either (a) untreated or treated with (b) interferon-beta 1a (REBIF®) alone (5000 IU) or (c) 1000 IU of interferon-beta 1a and B12 (15 mg/kg), or (d) 2500 units of interferon-beta 1a and B12 (15 mg/kg) or (e) 5000 IU of interferon-beta 1a and B12 (15 mg/kg), three times a week for the duration of the experiment. […] The animals were evaluated twice a week for clinical signs and the scores were averaged on a weekly basis. […]
The severity of the clinical signs increase until a maximum around 6 months with animals dying around 8 to 9 months of age. Clinical signs assessed include general shaking, seizures, head jerk, hind limb and tail shiver, wobbly gait and limp tail. […]

GFAP [3] = test: GFAP in brain of EAE mice (immunohistochemistry, slot blot of homogenates); assay type: in vivo, mouse
Experimental: (§1) EAE mice were treated as described previously in Example 2. After the various treatments, the mice were sacrificed and brain sections removed for GFAP staining and quantitation. The brain region of hippocampus, adjacent to the dentate gyrus was fixed in formalin, paraffin-embedded and sectioned at 5 μm. Immunohistochemistry with anti-GFAP antibody was used to stain for GFAP. Glial fibrillary acidic protein was a protein expressed by astrocytes (particularly reactive astrocytes) and was used as a marker for these cells.
(§2) In addition, quantification of GFAP within the brains of normal, EAE untreated and EAE treated mice was carried out to provide a more precise level of protein expression. Whole brain homogenates were assayed for GFAP by slot blot. Brains were homogenized in a buffer containing 50 mM Tris-HCl pH 7.6, 0.5 mM DTT, 1 mM EDTA, and 0.43 mM PMSF. The homogenate was centrifuged at 11000 rpm for 30 min at 4° C. The pellet was isolated and resuspended in a buffer containing 10 mM sodium phosphate pH 7.5, 2 mM DTT, 6 mM urea and 1 mM EDTA. Samples were loaded onto the slot blot apparatus (BioDot, Biorad) under vacuum. The blots were reacted with anti-GFAP antibodies and then a secondary antibody. The blots were developed and the relative amounts of each band quantified.

[4] = tested on: Herpes Simplex Virus Type 2 (HSV-2); test: CPE inhibition assay in MRC-5 cells, HSV-2; assay type: cell-based; details: fraction
EAE mouse model = test: Clinical signs in the EAE mouse model (SJL mice); assay type: in vivo; details: vitamin B12 (cyanocobalamin) 10 mg/kg daily, interferon-beta 1a 5000 IU daily
GFAP [5] = test: GFAP in brain of ND4 mice (immunohistochemistry, slot blot of homogenates); assay type: in vivo, mouse
Experimental: as §1, with “ND4” for “EAE”, “1.” for “2.”
as §2, with “ND4” for “EAE”

B1: interferon-beta: interferon-beta 1a (REBIF) in the animal examples; interferon-beta of unstated type in Examples 8-9 (protein, UniProt P01574 22-187, looked up)
Interferon beta: MSYNLLGFLQRSSNFQCQKLLWQLNGRLEYCLKDRMNFDIPEEIKQLQQFQKEDAALTIYEMLQNIFAIFRQDSSSTGWNETIVENLLANVYHQINHLKTVLEEKLEKEDFTRGKLMSSLHLKRYYGRILHYLKAKEYSHCAWTIVRVEILRNFYFINRLTGYLRN
- Anti-viral activity (protection of CPE) / viral activity, VSV ([1]; vitamin B12 = hydroxocobalamin (HC)): significantly increased
- Antiviral effect on VSV (CPE inhibition) ([1]; interferon 5 IU/ml): 0.826
- Antiviral effect on VSV (CPE inhibition) ([1]; interferon 10 IU/ml): 0.985
- Antiviral effect on VSV (CPE inhibition) ([1]; interferon 50 IU/ml): 0.758
- Antiviral effect on VSV (CPE inhibition) ([1]; interferon 100 IU/ml): 0.768
- Antiviral effect on VSV (CPE inhibition) ([1]; interferon 500 IU/ml): 0.956
- viral activity (HBV) ([2]; HepG2.2.15, vitamin B12 = hydroxocobalamin (HC)): decreased
- Antiviral effect on HBV (HBV DNA copies) ([2]; interferon-beta 50 IU/ml): 0.569
- Antiviral effect on HBV (HBV DNA copies) ([2]; interferon-beta 100 IU/ml): 0.746
- Antiviral effect on HBV (HBV DNA copies) ([2]; interferon-beta 500 IU/ml): 0.773
- Antiviral effect on HBV (HBV DNA copies) ([2]; interferon-beta 1000 IU/ml): 0.823
- clinical signs of MS (FIG. 1) (ND4 mouse model; ND4 mice, vitamin B12 (cyanocobalamin) 15 mg/kg weekly, interferon-beta 1a 5000 IU tri-weekly, from 3 months of age): attenuation of clinical signs
- Sum of Clinical Scores (+/−SD) (ND4 mouse model; ND4 mouse at six months, interferon-beta 5000 IU alone, three times a week): 21 +/− 4
- Relative Amount of GFAP (+/−SD) (GFAP [3]; EAE brain homogenates, interferon-beta 5000 IU/ml, Normal 1.0, untreated EAE 4.2): 2.0 +/− 0.5
- reduction of the amounts of GFAP (GFAP [3]; EAE mice treated as in Example 2): ~50%
- Antiviral effect on HSV-2 (CPE inhibition) ([4]; interferon 5 IU/ml): 0.164
- Antiviral effect on HSV-2 (CPE inhibition) ([4]; interferon 10 IU/ml): 0.136
- Antiviral effect on HSV-2 (CPE inhibition) ([4]; interferon 50 IU/ml): 0.314
- Antiviral effect on HSV-2 (CPE inhibition) ([4]; interferon 100 IU/ml): 0.281
- Antiviral effect on HSV-2 (CPE inhibition) ([4]; interferon 500 IU/ml): 0.265
- clinical signs of the inflammatory disease (FIG. 2) (EAE mouse model): attenuation of clinical signs
- Relative Amount of GFAP (+/−SD) (GFAP [5]; ND4 brain homogenates, interferon-beta 5000 IU/ml, Normal 1.0, untreated ND4 4.4): 3.1 +/− 0.1
- GFAP staining, activated astrocytes and levels of GFAP (FIG. 4) (GFAP [5]; ND4 mice treated as in Example 1): decreased

Read-outs that look alike come from different tables or passages of the source.
